Only a part is listed here, and it is no random draw. Calls of active or inactive are those of the source. Rule as the data show it: active = inhibition mostly above about 23% (no sharp cut-off); inactive = mostly below about 18%.

By UniProt entry, the sequences of proteins in these tests, tags left out.
UniProt P47898, whole entry, looked up: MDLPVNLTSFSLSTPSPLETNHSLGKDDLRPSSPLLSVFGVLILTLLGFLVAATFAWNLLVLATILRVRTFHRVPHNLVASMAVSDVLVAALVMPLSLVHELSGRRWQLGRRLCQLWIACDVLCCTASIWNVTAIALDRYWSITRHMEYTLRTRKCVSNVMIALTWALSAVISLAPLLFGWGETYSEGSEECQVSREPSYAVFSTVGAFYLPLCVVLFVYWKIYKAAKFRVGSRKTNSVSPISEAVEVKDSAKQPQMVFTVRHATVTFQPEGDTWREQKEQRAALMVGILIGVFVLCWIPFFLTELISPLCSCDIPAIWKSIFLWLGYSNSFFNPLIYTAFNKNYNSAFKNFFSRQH

The test addresses 5-hydroxytryptamine receptor 5A (Homo sapiens) (UniProt P47898). In words: HTR5A inverse agonists in luminescence cell assay, primary screen, counter-screen for OPRM1-OPRD1 heterodimer inverse agonist project, full-deck HTS (AID 504634).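 Also: 0% = cells with DMSO and 100% = no-cell wells with DMSO.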 As to conditions: HTR5A cell line, inverse agonism, at 9.3 µM, hits give high values.
Turning to `Cn1c(=O)c2c(ncn2CC(=O)N2CCN(c3ccccc3F)CC2)n(C)c1=O`, the inhibition (as a rule, the drop in the measured response relative to a control, in per cent) was inactive: -8.84%.

With `COc1ccc(C2=NCC(CBr)S2)cc1` (stereo not drawn), the inhibition was inactive: 7.7%.

As to `CCN(CC)CCn1c(=N)n(CCO)c2ccccc21`, the inhibition was inactive: -2.4%.

Turning to `Cn1c(=O)c2c(ncn2CC(=O)N/N=C/c2ccco2)n(C)c1=O`, the inhibition was inactive: -27.5%.

Take `CC(=O)N1CCc2cc(S(=O)(=O)NC(CC(C)C)C(=O)N3CCn4c3nc3ccccc34)ccc21` (stereo not drawn): the inhibition is inactive: 8.46%.

`CCC(=O)Nc1cccc(C(=O)/C=C/c2cccs2)c1`: the inhibition was inactive: -2.8%.

In the case of `CCC(C)[C@H](NC(=O)N1CCn2c1nc1ccccc12)C(=O)NCCc1ccccc1` (stereo partly drawn), the inhibition is inactive: -12.1%.

With `C[C@H](O)[C@@H]1C(=O)N2CCc3ccc(-c4ccccc4)cc3[C@@H]2C[C@@H]1N(C)C(=O)Nc1cc(Cl)cc(Cl)c1`, the inhibition was inactive: -22.5%.

With `O=C(NC1CCCCC1)N1CCC(n2c(=O)[nH]c3ccccc32)CC1`, the inhibition is inactive: -54.1%.

With `Cn1c(=O)c2c(nc(Sc3nc4ccccc4n3CC(=O)N3CCCCC3)n2C)n(C)c1=O`, the inhibition is inactive: -28.1%.

In the case of `O=C(Cn1cnc2c(OCc3ccccc3)ncnc21)NCCCn1ccnc1`, the inhibition is inactive: 1.85%.

In the case of `CCSc1nc2ccccc2n1CC(=O)N1CCCCC1`, the inhibition is inactive: -15.7%.

As for `Cc1nc2ccccc2n1CC(=O)NC1CCCCCC1`, the inhibition is inactive: 4.27%.

`O=C1CC(C(=O)Nc2cccc(F)c2)n2c(nc3ccccc32)N1` (stereo not drawn): the inhibition is inactive: 0.54%.

Consider `CC1CCN(C(=O)Oc2c(Cl)cc(Cl)c3cccnc23)CC1`, for which the inhibition was inactive: 3.92%.

`CNC(=O)Cc1nc2ccccc2n1CC(=O)Nc1cc(C)cc(C)c1`: the inhibition is inactive: -14.6%.

As for `N=c1n(CCN2CCOCC2)c2ccccc2n1CC(=O)c1cccc([N+](=O)[O-])c1`, the inhibition is inactive: -9.96%.

On to `O=C(Cn1cnc2c(OCc3ccccc3)ncnc21)NCCCN1CCCC1=O`, for which the inhibition was inactive: -13.8%.

In the case of `CN(C)C(=O)OCCc1n(C)cc[n+]1C`, the inhibition is inactive: 1.49%.

As for `CC(C)=N/N=C(\N)N[N+](=O)[O-]`, the inhibition is inactive: 17.1%.

For `Cn1c(=O)n(CC(=O)N2CCN(c3nnc(-c4ccccc4)c4ccccc34)CC2)c2ccccc21`, the inhibition is inactive: -2.01%.

As for `COC(=O)[C@H](Cc1ccc(O)cc1)NC(=O)Cn1cnc2c(NCc3ccccc3)ncnc21`, the inhibition is inactive: -17.5%.

Take `NNC(=O)Cn1c(SCc2ccccc2)nc2ccccc21`: the inhibition is inactive: -9.97%.

Consider `CCN(CC)CCn1c(NCc2cccc(OC)c2OC)nc2ccccc21`, for which the inhibition is inactive: 5.1%.

In the case of `CN1CCC(N(C)c2ncnc3ccc(Br)cc23)CC1`, the inhibition is inactive: 7.04%.

Regarding `Cn1c(=O)c2c(ncn2CC(=O)N2CCN(c3ccc([N+](=O)[O-])cc3)CC2)n(C)c1=O`, the inhibition was inactive: 1.02%.

For `CCc1nc2ccccc2n1CC(=O)N(C(C)CC)C1CCS(=O)(=O)C1` (stereo not drawn), the inhibition is inactive: -29.1%.

Take `CCOC(=O)c1c(NC(=O)Cn2c(C)nc3ccccc32)sc2c1CCC2`: the inhibition is inactive: -16.6%.

Regarding `CC(C)C[C@H](NC(=O)N1CCn2c1nc1ccccc12)C(=O)NC1CCCCC1`, the inhibition was inactive: -9.03%.

With `O=C(Nc1ccc2c(c1)nc1n2CCN(Cc2ccccc2)C1)NC1CCCCC1`, the inhibition was inactive: 10.1%.

Regarding `CCN(/C(=N/P(=O)(N1CCOCC1)N1CCOCC1)N1CCOCC1)c1ccc(OC)cc1`, the inhibition is inactive: 13.9%.

Turning to `COc1ccc(/C([O-])=C(/C(=S)Nc2ccc(C)c(C)c2)n2c[n+](C)c3ccccc32)cc1OC`, the inhibition is inactive: 12.7%.

In the case of `Cc1ccc(-c2nnc(N3CCN(C(=O)Cn4c(=O)n(C)c5ccccc54)CC3)c3ccccc23)cc1`, the inhibition was inactive: -11.9%.

For the compound `CCc1ccc(C(C)NC(=O)Cn2cnc3c(=O)n(C)c(=O)n(C)c32)cc1` (stereo not drawn), the inhibition was inactive: -8.11%.

As for `Cc1nc2ccccc2n1CC(=O)NC(C)C1CC2CCC1C2` (stereo not drawn), the inhibition was inactive: 31.9%.

On to `C[N+]1=C2C=CC=CC=C2SC12C([N+](=O)[O-])=CC([N+](=O)[O-])=C[C-]2[N+](=O)[O-]` (stereo not drawn), for which the inhibition is inactive: -15%.

As to `COc1ccc(-c2ccc3c(c2)[C@@H]2C[C@H](N(C)C(=O)Nc4ccccc4)[C@H]([C@H](C)O)C(=O)N2CC3)cc1`, the inhibition is inactive: -0.25%.

In the case of `Nc1ccc([As](=O)(O)c2ccc(N)cc2)cc1`, the inhibition was inactive: -10.2%.

Turning to `COCC(=O)N(C)[C@H]1C[C@H]2c3cc(N4CCN(C)CC4)ccc3CCN2C(=O)[C@H]1[C@H](C)O`, the inhibition was inactive: -0.07%.

As for `C[C@H](NC(=O)N1CCn2c1nc1ccccc12)C(=O)NC1CCCCC1`, the inhibition is inactive: -14.5%.

On to `CCC(CC)NC(=O)Cn1c(C(C)NC(C)=O)nc2ccccc21` (stereo not drawn), for which the inhibition was inactive: -0.43%.

As for `c1ccc(CCn2nnnc2CN2CCC(n3nnc4ccccc43)CC2)cc1`, the inhibition is inactive: 24%.

For the compound `FC(F)(F)c1ccc2c(c1)nnn2C1CCN(Cc2nnnn2Cc2ccccc2)CC1`, the inhibition is inactive: -8.49%.

For `COc1ccc2nc(NC(=O)Cn3cnc4c(=O)n(C)c(=O)n(C)c43)sc2c1`, the inhibition is inactive: 6.95%.

On to `CCC(=O)Nc1ccc(NC(=S)NC(=O)/C=C/c2ccccc2)cc1`, for which the inhibition was inactive: 16%.

Regarding `Cn1c(=O)[nH]c(=O)c2c1nc(CN1CCN(c3ccccc3F)CC1)n2CC(N)=O`, the inhibition was inactive: 0.95%.

`CC1CN(Cc2nc3c(c(=O)[nH]c(=O)n3C)n2CC(N)=O)CC(C)O1` (stereo not drawn): the inhibition was inactive: -11.6%.

On to `Cc1nc2cc(C(F)(F)F)ccc2n1C1CCN(Cc2nnnn2Cc2ccc3c(c2)OCO3)CC1`, for which the inhibition was inactive: 21%.

For the compound `Cc1ccc(CNC(=O)CCNC(=O)N2CCn3c2nc2ccccc23)cc1`, the inhibition is inactive: 11.8%.

Take `COc1ccc(CNc2nc3ccccc3n2CCN2CCCCC2)c(OC)c1`: the inhibition was inactive: 16.2%.

`c1ccc(CN2CCC3(CC2)Nc2ccccc2S3)cc1`: the inhibition is inactive: -14.7%.

Turning to `COc1ccccc1CNc1nc2ccccc2n1CCN1CCCCC1`, the inhibition is inactive: -2.64%.

As for `COc1ccc(N2CCn3c2nc2c3c(=O)n(CCCc3ccccc3)c(=O)n2C)c(OC)c1`, the inhibition was inactive: 0.73%.

As to `CCSc1nnc(NC(=O)Cn2cnc3c2c(=O)n(C)c(=O)n3C)s1`, the inhibition was inactive: 0.32%.

Turning to `Cc1cc(C)c(CN2CCN(C(=O)Cn3cnc4c(OCc5ccccc5)ncnc43)CC2)c(C)c1`, the inhibition is inactive: -2.33%.

In the case of `C=CCc1cccc(CNc2nc3ccccc3n2CCN2CCOCC2)c1O`, the inhibition is inactive: -48.4%.

In the case of `O=C(Nc1cc([As](=O)(O)O)ccc1O)c1ccccc1`, the inhibition was inactive: -25.7%.

Consider `Cn1c(=O)n(CC(=O)Nc2ccccc2)c2ccccc21`, for which the inhibition is inactive: -2.79%.

With `O=C(c1ccco1)N1CCn2c1nc1ccccc12`, the inhibition was inactive: 16.6%.

In the case of `COc1ccc(Cc2nc3ccccc3n2CC(=O)N/N=C/c2ccccc2)cc1OC`, the inhibition was inactive: -3.69%.

Consider `COc1ccccc1NS(=O)(=O)c1cc(NC(=O)Cn2cnc3c2c(=O)n(C)c(=O)n3C)ccc1C`, for which the inhibition is inactive: -11.2%.

With `Cn1c(=O)[nH]c(=O)c2c1nc(SCc1ccccc1Cl)n2CC(N)=O`, the inhibition was inactive: 3.01%.

For the compound `COc1ccc(CNC(=O)Cn2cnc3c(=O)n(C)c(=O)n(C)c32)cc1`, the inhibition was inactive: -11.9%.

Turning to `Cc1ccc2c(c1)[C@@H]1CN(C)CC[C@@H]1N2S(=O)(=O)c1ccc(F)cc1`, the inhibition was inactive: -10.9%.

As for `O=C(Cn1cnc2ccccc21)NCCCN1CCOCC1`, the inhibition was inactive: -21.8%.

On to `CC(C)[C@H](NC(=O)N1CCn2c1nc1ccccc12)C(=O)N[C@H](C(=O)O)c1ccccc1`, for which the inhibition was inactive: 15.2%.

As for `CC(C)[C@H](NC(=O)N1CCn2c1nc1ccccc12)C(=O)NCc1ccc2c(c1)OCO2`, the inhibition was inactive: 10.4%.

For `Cn1c(=O)c2ncn(CC(=O)NC3CCCCCC3)c2n(C)c1=O`, the inhibition was inactive: -8.46%.

On to `Cn1c(=O)n(Cc2ccc(Cl)cc2)c(=O)c2c1nc1n2CCN1Cc1ccco1`, for which the inhibition was inactive: -4.09%.

As for `O=P1(N(CCCl)CCCl)OCCCS1` (stereo not drawn), the inhibition is inactive: -0.19%.

Regarding `O=[N+]([O-])c1ccccc1NC1CCN(Cc2ccccc2)CC1`, the inhibition is inactive: 4.04%.

As to `Cc1ccc2c(c1)C1CN(C)CCC1N2C(=O)Nc1ccc(Cl)cc1` (stereo not drawn), the inhibition is inactive: 2.17%.

For `CSc1nc(N)nc2c1ncn2CC(=O)N[C@H](CO)Cc1c[nH]c2ccccc12`, the inhibition was inactive: 11.4%.

Turning to `Cc1ccc2c(c1)C1CN(C)CCC1N2C(=O)c1cccnc1Cl` (stereo not drawn), the inhibition is inactive: 4.07%.

Turning to `N#CCC(=O)N/N=C\c1ccccc1OC/C=C/c1ccccc1`, the inhibition is inactive: -11%.

With `Cc1ccc2c(c1)C1CN(C)CCC1N2CC(=O)N(C)c1ccccc1` (stereo not drawn), the inhibition was inactive: -12.7%.

Turning to `COCCCNC(=O)Cn1cnc2c(OCc3ccccc3)ncnc21`, the inhibition was inactive: -14%.

In the case of `CCOC(=O)Nc1ccc2c(c1)nc1n2CCN(CCOC)C1`, the inhibition is inactive: -22.3%.

For the compound `COc1ccc(Cc2nnc(NC(=O)Cn3cnc4c3c(=O)n(C)c(=O)n4C)s2)cc1`, the inhibition is inactive: -11.6%.

Consider `CCN(CC)CCn1c(=N)n(CC(O)c2ccco2)c2ccccc21` (stereo not drawn), for which the inhibition is inactive: -4.47%.

For `CC(C)Oc1cccnc1N(C)C1CCN(Cc2ccccc2)CC1`, the inhibition is inactive: 9.37%.

Regarding `Cn1c(=O)c2c(nc(NCCc3ccccc3)n2CC(=O)NCCc2ccccc2)n(C)c1=O`, the inhibition was inactive: 4.98%.

On to `COC(=O)C[C@H](NC(=O)Cn1cnc2c(SC)nc(N)nc21)C(=O)OC`, for which the inhibition was inactive: -14.9%.

Regarding `Cc1ccc(-c2csc(N3CCN(c4cc5c(cc4Cl)nc(C)n5CCN4CCCCC4)CC3)n2)cc1`, the inhibition was inactive: -10.8%.

As to `Cc1cc(NC(=O)CSc2nc3ccccc3n2CC(=O)N2CCCCC2)no1`, the inhibition was inactive: 10.1%.

Consider `O=C(CCCN1CCC2(CC1)C(=O)NCN2c1ccccc1)c1ccc(F)cc1`, for which the inhibition was inactive: -2.42%.

As for `COc1cc(NC(=O)Cn2c(-c3cncs3)nc3ccccc32)cc(OC)c1OC`, the inhibition is inactive: -3.54%.

For `Cn1c(=O)c2c(nc(CN3CCN(c4ccc(F)cc4)CC3)n2CCN2CCOCC2)n(C)c1=O`, the inhibition was inactive: -4.07%.

(Values after PubChem BioAssay AID504634 (The Scripps Research Institute Molecular Screening Center, 2011).)
